Nrf2 block: Nrf2 pathway inhibition | A549 ARE-Fluc reporter, luciferase luminescence, 18-24 h | Potency, µM (top dose mostly 46 µM), without a hit: top-dose activity change, negative = inhibition, most hits filed as inhibitors | AID 504444 | 2.1% of 360,000 active; note: potency is the fitted concentration of half-maximal effect; % is set by controls: 0 for no effect and ±100 for the full control effect; nearly all actives have a fitted effect of over 60% in size
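Nrf2 activity is the BugLite luminescence, read 15 min after reagent at room temperature, following CellTiter-Fluor cytotoxicity readout (30 min, 37C). Compound titrations were applied for 18-24 h to 5000 A549 ARE_Fluc cells/well in 5% FBS OPTI-MEM.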
miR-21 FLuc: miR-21 reporter, rising signal | 340,000 tested, under 10 active | AID 2288 | HeLa miR-21 FLuc reporter, luciferase, 48 h | Potency, µM (titrated, usually from 38.3 µM), for inactives: at the highest dose reporter change, positive = more light; active = well fitted rising curve with a large enough effect; inconclusive = small, poorly fitted or top-dose-only effect; inactive = no such curve, though single readings can be large or run the other way;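 further: % of control where 0% means no effect; miR-21 action dims this reporter so a rising signal means less miR-21 action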
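Luminescence from a firefly luciferase reporter carrying a miR-21 binding site downstream, stably expressed under a CMV promoter in HeLa cells that make miR-21 endogenously, reports miRNA modulation after 48 h compound exposure up to approximately 40uM final.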
Nrf2 activator: activates Nrf2 signaling; Potency, µM (titrated, usually from 46.1 µM), for the others: top-dose activation, most hits filed as activators; AID 624171; 0.31% of 410,000 active; AREc32 ARE-luciferase reporter (MCF7-derived line), luminescence, 24 h; note: potency is the fitted concentration of half-maximal effect; % of control where 0% means no effect; nearly all actives have a fitted effect of over 65% in size
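Each well held 1000 AREc32 cells, which were incubated with compound for 24 hr at 37 deg C after overnight attachment, and ARE reporter activity was quantified by firefly luciferase luminescence.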
IL2 activator: activators of IL-2 | IL-2 activation reporter assay, cell-based qHTS; stimulated with anti-CD3/CD4/CD28 beads; in transgenic mouse T cells | activation, % (series mostly up to about 46 µM) | 0.065% of 360,000 active; in the data active = activation above about 50%; inconclusive = mostly about 30% to 49%; note: 0% is about no effect
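Unstimulated transgenic mouse T cells; 60-min compound exposure; bead-based TCR/CD4/CD28 stimulation; 18 h culture, 37 degrees C; dual fluorescence (EGFP, DsRed) plate cytometry.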
A549 tox: A549 cytotoxicity, counter-screen for Nrf2 inhibitors; 0.16% of 390,000 active; A549 ARE-Fluc cells, CellTiter-Fluor viability, 18-24 h; Potency, µM (top dose mostly 46 µM), inactives show at the top dose activity change, negative = cytotoxicity, usual class: inhibitors; note: potency is the fitted concentration of half-maximal effect; % is set by controls: 0 for no effect and ±100 for the full control effect
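A549 ARE-Fluc cells in 5% FBS OPTI-MEM, 5000 cells/well, rested 2 h then exposed to compounds in concentration-response for 18-24 h at 37 °C. Viability by CellTiter-Fluor fluorescence (Ex 405/Em 525) after 30 min; luciferase luminescence (BugLite, 15 min, RT) read afterwards.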
ClpP mod: qHTS Assay for Activators of ClpP | purified B. subtilis ClpP, FRET peptide cleavage, 20 min | ATP-dependent Clp protease proteolytic subunit (Bacillus subtilis (strain 168)), P80244 | 1.9% of 340,000 active | Potency, µM (series often up to 57.5 µM), for inactives: at the top dose activity change, negative = active | AID 651965, 2013; active = well fitted falling curve with a large enough effect; inconclusive = small, poorly fitted or top-dose-only effect; inactive = no such curve, though single readings can be large or run the other way; note: potency is the fitted concentration of half-maximal effect; the source files actives as falling curves though it sought activators and does not explain the sign; nearly all actives have a fitted effect of over 65% in size
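FRET quenching reversal measured ClpP activation: 10 microg/mL B. subtilis ClpP at pH 8 with the FRET-FV decapeptide, read at 430 nm after 320 nm excitation. The 20-min minus 0-min signal was scaled between DMSO/no-enzyme wells and ADEP (5.8 microM final).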
An asterisk follows results filed as active; ? = inconclusive; nt = not tested or not shown. Most compounds without a hit are left out; they make up all but 3.7% or so of the library. Unless noted, calls come from the whole dose curve; as a rule, active = well fitted curve in the direction sought with a large enough effect; inconclusive = small, poorly fitted or top-dose-only effect, or another doubt; inactive = no such curve, though single readings can be large; an effect the other way counts as inactive or inconclusive.

Chains of the proteins cited; added tags and fusions are not shown.
ATP-dependent Clp protease proteolytic subunit (Bacillus subtilis (strain 168)), P80244, UniProt P80244, whole entry, looked up: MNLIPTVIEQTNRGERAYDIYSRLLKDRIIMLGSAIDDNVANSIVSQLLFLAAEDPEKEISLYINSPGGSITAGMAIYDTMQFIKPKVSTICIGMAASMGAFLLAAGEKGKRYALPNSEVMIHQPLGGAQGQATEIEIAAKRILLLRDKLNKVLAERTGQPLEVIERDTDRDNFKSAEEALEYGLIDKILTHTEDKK

SMILES	Nrf2 block	miR-21 FLuc	Nrf2 activator	IL2 activator	A549 tox	ClpP mod
CN(Cc1nc(Cc2ccccc2F)no1)Cc1cccc2ncccc12	18.4µM*	11.5%	0.2%	-4.6	-20.7%	nt
COc1ccc(CC(=O)Nc2oc(-c3ccccc3)c(-c3ccccc3)c2C#N)cc1OC	?	-1.0%	0.6%	-0.4	-5.5%	31.6µM*
COCCCNC(=S)N1CCN(c2nc(-c3ccccc3)cs2)CC1	11.6µM*	15.9%	3.4%	-0.3	1.1%	-1.5%
CCN(CC)CCCNC(=S)N1CCN(c2nc(-c3ccccc3)cs2)CC1	-13.6%	16.9%	10.8%	-3.5	4.2%	nt
CCOCCCNC(=S)N1CCN(c2nc(-c3ccccc3)cs2)CC1	16.4µM*	21.4%	0.2%	0.2	-16.4%	-1.7%
O=C(NC(=S)N1CCN(c2nc(-c3ccccc3)cs2)CC1)c1cncc(Br)c1	23.1µM*	7.9%	16.6%	0.8	-21.7%	0.7%
COCCCNC(=S)N1CCN(c2nc(-c3ccc(Cl)cc3)cs2)CC1	nt	nt	2.8%	-3.3	nt	-6.2%
CN(C)c1ccc(/C=C2/CCc3ccccc32)cc1	nt	nt	nt	nt	nt	0.2%
CCC1CCc2c(sc(NC(=O)C3c4ccccc4Oc4ccccc43)c2C#N)C1 (stereo unspecified)	-1.3%	21.9%	0.2%	nt	-0.3%	-9.1%
COc1ccc(/C=C/c2nc3cc(-c4ccccc4)ccc3o2)cc1O	3.1%	-0.2%	21.8%	1.4	0.6%	12.6µM*
COc1ccc(/C=C/c2nc3ccccc3c(=O)o2)cc1	?	?	-2.1%	-5.9	1.1%	nt
c1cnc2[nH]ccc2c1	nt	nt	nt	nt	nt	-7.2%
O=C(/C=C/Nc1ccccc1C(F)(F)F)c1ccco1	?	-50.4%	1.78µM*	-0.5	-1.4%	nt
CCN(CC)S(=O)(=O)c1nnc(NC(=O)COc2ccccc2F)s1	?	-55.2%	-0.3%	nt	-0.3%	-2.5%
CCc1cc(=O)oc2c(C)c(OC(C)C(=O)NCC3CCC(C(=O)O)CC3)ccc12 (stereo unspecified)	-6.3%	-3.3%	-0.7%	-0.7	-4.2%	4.8%
CCOC(=O)C(C)Oc1ccc2c(CC)cc(=O)oc2c1C (stereo unspecified)	nt	-4.7%	-0.3%	-1.6	3.9%	17.8µM*
COc1ccc(/C=C2\SC(=Nc3ccccc3OC)NC2=O)cc1	?	7.4%	0.2%	-0.1	-10.1%	0.8%
COc1ccc(/C=C2\SC(=NCc3ccccc3)NC2=O)cc1	-1.9%	2.4%	3.2%	0.5	-3.7%	22.4µM*
Cc1nc(N2CCCCCC2)c2ccccc2n1	18.4µM*	19.4%	1.2%	-0.3	-10.1%	-2.9%
Nc1nc(N2CCCCC2)nc2ccccc12	-11.1%	-21.0%	6.6%	1.1	-12.5%	17.8µM*
c1ccc2c(N3CCCCC3)nc(N3CCCC3)nc2c1	-24.2%	22.1%	-0.2%	1.5	-14.7%	?
Nc1nc(N2CCN(c3ccccn3)CC2)nc2ccccc12	?	-66.5%	6.0%	-2.0	-27.1%	-11.5%
COc1cccc(Oc2c(C)oc3c(CN4CCCCC4)c(O)ccc3c2=O)c1	-7.9%	-6.8%	0.5%	1.4	-1.3%	3.7%
COc1ccc(Oc2coc3c(CN(C)C)c(O)ccc3c2=O)cc1	11.2%	-3.3%	-0.2%	-2.6	0.4%	28.2µM*
Cc1oc2c(CN(C)C)c(O)ccc2c(=O)c1-c1cscn1	5.7%	-3.6%	0.2%	-2.3	1.7%	25.1µM*
CCc1cc2c(=O)c(-c3cscn3)coc2c(CN(C)C)c1O	-0.4%	-6.6%	4.3%	0.1	-9.4%	15.8µM*
CCc1cc2c(=O)c(-c3ccc4c(c3)OCO4)coc2c(CN(C)C)c1O	-1.1%	-11.0%	1.1%	1.3	-8.7%	3.7%
COc1ccc(Oc2c(C)oc3c(CN(C)C)c(O)ccc3c2=O)cc1	16.3%	-1.4%	-0.8%	-0.9	-2.5%	28.2µM*
Cc1c(Cl)cccc1NC(=O)CCOc1ccccc1	-23.5%	-15.0%	0.3%	nt	7.2%	-1.6%
Nc1[nH]c(=S)nc2nnsc12	nt	nt	nt	nt	nt	0.1%
CC(=O)Nc1cccc(N/C(N)=N/c2nc(C)cc(C)n2)c1	?	1.9%	1.2%	0.4	6.1%	-3.4%
Cc1cccc(N/C(N)=N/c2nc(C)cc(C)n2)c1	0.4%	8.7%	1.9%	-2.8	3.5%	31.6µM*
Cc1nc2ccc(NS(=O)(=O)c3ccc(Br)cc3)cc2s1	14.6µM*	nt	6.4%	-0.5	-0.1%	-0.2%
Cc1ccc(S(=O)(=O)Nc2ccc3nc(C)sc3c2)c(C)c1	?	nt	0.4%	0.9	-11.6%	-1.6%
Cc1ccc(S(=O)(=O)Nc2ccc3nc(C)sc3c2)cc1	14.6µM*	1.2%	2.7%	-0.8	-5.5%	0.0%
Cc1nc2ccc(NS(=O)(=O)c3cccc([N+](=O)[O-])c3)cc2s1	18.4µM*	nt	8.3%	-0.6	-12.0%	nt
Cc1nc2ccc([N+](=O)[O-])cc2s1	1.3%	-0.9%	-0.3%	0.4	-2.4%	nt
Cc1ccc(S(=O)(=O)Nc2ccc3nc(N)sc3c2)cc1	7.31µM*	4.3%	0.0%	-0.2	-18.1%	-2.4%
COc1ccccc1S(=O)(=O)Nc1ccc2nc(C)sc2c1	?	nt	2.3%	-0.1	-0.5%	-2.1%
O=C(Nc1ccc(Cl)cc1Cl)c1cc(S(=O)(=O)NCc2ccc3c(c2)OCO3)ccc1F	nt	-5.0%	0.7%	nt	-5.9%	4.5%
CC(=O)Nc1ccc2nc(NS(=O)(=O)c3ccc(C)cc3)sc2c1	-15.1%	-4.7%	-0.3%	-0.5	5.5%	-21.0%
CC(=O)Nc1ccc(S(=O)(=O)Nc2ccc3nc(C)sc3c2)cc1	16.4µM*	nt	1.5%	-0.1	-15.3%	nt
Cc1nc2ccc(NS(=O)(=O)c3ccccc3F)cc2s1	?	nt	0.7%	-0.3	0.0%	-3.2%
Cc1nc2ccc(NS(=O)(=O)c3ccc(F)c(F)c3)cc2s1	16.4µM*	nt	2.1%	-0.8	2.7%	-4.2%
N#Cc1cnn2c(-c3ccccc3)ccnc12	9.5%	-16.6%	1.7%	0.9	3.2%	25.1µM*
COc1ccc(-c2ccnc3c(C#N)cnn23)cc1	-7.8%	-1.8%	0.5%	-0.4	3.8%	nt
Nc1nsc2ccccc12	?	29.6%	11.2µM*	-3.3	-17.3%	31.6µM*
COc1cc(/C=N/Nc2nc3c(c(=O)n(C)c(=O)n3C)n2Cc2ccccc2)ccc1OC(=O)c1ccco1	?	-3.1%	0.6%	-4.2	?	31.6µM*
Cc1cccc(C)c1Nc1nnc(SCC(=O)c2ccc(Br)s2)s1	-7.9%	-0.3%	0.0%	-0.8	1.7%	-2.3%
Cc1cccc(C)c1Nc1nnc(SCC(=O)c2ccc3c(c2)NC(=O)CO3)s1	0.7%	-1.8%	3.0%	0.6	-1.1%	35.5µM*

Compounds above that have fluorine (six):
SMILES	Nrf2 block	miR-21 FLuc	Nrf2 activator	IL2 activator	A549 tox	ClpP mod
CN(Cc1nc(Cc2ccccc2F)no1)Cc1cccc2ncccc12	18.4µM*	11.5%	0.2%	-4.6	-20.7%	nt
O=C(/C=C/Nc1ccccc1C(F)(F)F)c1ccco1	?	-50.4%	1.78µM*	-0.5	-1.4%	nt
CCN(CC)S(=O)(=O)c1nnc(NC(=O)COc2ccccc2F)s1	?	-55.2%	-0.3%	nt	-0.3%	-2.5%
O=C(Nc1ccc(Cl)cc1Cl)c1cc(S(=O)(=O)NCc2ccc3c(c2)OCO3)ccc1F	nt	-5.0%	0.7%	nt	-5.9%	4.5%
Cc1nc2ccc(NS(=O)(=O)c3ccccc3F)cc2s1	?	nt	0.7%	-0.3	0.0%	-3.2%
Cc1nc2ccc(NS(=O)(=O)c3ccc(F)c(F)c3)cc2s1	16.4µM*	nt	2.1%	-0.8	2.7%	-4.2%
